Apparent affinities of Ab-14 variants for a coronavirus HR2 peptide

Target peptide (SARS-CoV-2 spike, HR2 region): PDVDLGDISGINAS

Ab-14 is the parent antibody, in scFv form: VH, then the linker GGGGSGGGGSGGGGS, then VL. The heavy chain is unchanged in all variants.
VH: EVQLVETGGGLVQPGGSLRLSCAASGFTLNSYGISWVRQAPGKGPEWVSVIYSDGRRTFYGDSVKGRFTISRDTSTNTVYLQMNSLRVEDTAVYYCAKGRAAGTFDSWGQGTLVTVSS
VL: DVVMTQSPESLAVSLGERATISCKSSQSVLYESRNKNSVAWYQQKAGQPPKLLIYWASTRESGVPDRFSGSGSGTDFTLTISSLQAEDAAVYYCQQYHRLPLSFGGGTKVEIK

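This is the validation round: designs drawn from the data on random variants, tested in the same kind of assay. Group labels follow the data file (Ctrl: baseline library sampled from a position-specific scoring matrix, with some repeated check sequences; En: ensemble of fine-tuned language models; GP: Gaussian process model; HC: hill climbing; Gen: genetic algorithm; Gibbs: Gibbs sampling; a sequence that several methods proposed may carry one label only). AlphaSeq pools MATa yeast showing the antibodies with MATalpha yeast showing the peptide. Pairs that bind mate more often; barcode pairs of the diploids are counted by sequencing. A regression on co-assayed BCL2-family reference pairs converts the normalised counts of each replicate to an apparent Kd. Each pool was mated in six replicate cultures.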

The parent's light chain CDRs are KSSQSVLYESRNKNSVA, WASTRES, QQYHRLPLS; each variant's own CDRs replace them letter for letter. The Kd shown is the geometric mean over detected replicates; a lower Kd is a better binder. "nd" marks a missing value. The strain was present, yet no cells mated with the target were sequenced in any replicate, which points to weak or no binding. Empty control strains, which show no peptide, gave a signal in 4% of pairings with all light chain designs; the median was 430 nM and 95% of these signals were weaker than 38 nM. No background was subtracted. Also given: how often the same scFv was detected with the empty control strains. A sequence measured in both rounds can read differently, since the two assays cover different ranges. The authors averaged sequences with at least three values out of six and counted those with two or fewer as poor binders. The parent sequence was in this pool as ten entries: three were never detected, three once, and four in most replicates, with averages from 2.2 nM to 240 nM.

CDR-L1,CDR-L2,CDR-L3,group,Kd,seen in,control signals
KVEQSYLYESRNKNSVA,NASTRES,QQYHRLPLS,GP_Gen,370 pM,6 of 6,0 of 18
KSSQSVLYESRNKNIVA,WASTRES,QQYHRLPLS,Ctrl,nd,0 of 6,0 of 18
KISSMSNHQSSVANNVA,ENVTREE,QQYFRLPLE,En_Gen,16 nM,6 of 6,0 of 18
KISQMQRVGSTHNNSIA,EEQTRAK,QQYHRLPLS,En_Gen,57 nM,6 of 6,0 of 18
KLSMVTGHLSMAKNNVA,EMETREK,QQYERLPLS,En_Gen,5.2 nM,6 of 6,0 of 18
HMSMLTMMGSRHRNSVA,QMTTREN,QQYDRLPLA,En_Gen,68 nM,4 of 6,0 of 18
TISTSMRYESSLKNAIA,NAQTREQ,QQYHRLPLS,En_HC,2.1 nM,6 of 6,0 of 18
KISSLTLYESVQKNNVA,EMSTRPS,QSYHRLPLS,En_HC,4.9 nM,6 of 6,4 of 18
KVSQSQLYESRNKWSVA,NASTRES,QQYHRLPLS,GP_Gen,3.0 nM,6 of 6,1 of 18
MLSDLVKMGYRNTNSVA,DNSTRGS,QQYDRLPLS,En_HC,2.3 µM,3 of 6,2 of 18
KSSQSVLYETRNKRSVA,WASTRES,QQYHRLPLS,Ctrl,140 nM,1 of 6,0 of 18
KVSQSMLYESRNKNSVA,EASQRES,QQYHRLPLS,GP_Gen,600 pM,6 of 6,1 of 18
KLSQSELYESRNKNSVA,SASQRLS,QQYHRLPLS,GP_Gen,750 pM,6 of 6,1 of 18
KVSQSKLYESRNKNNVA,EASTRES,QQYHRLPLS,GP_Gen,480 pM,6 of 6,1 of 18
KLQFLGPYEQRNKNSVA,SASTRCS,QQYHRLPLS,GP_Gibbs,650 pM,6 of 6,0 of 18
KFSQSVLYESRNKNSVA,WASKRES,QQYHRLPLS,Ctrl,26 nM,6 of 6,0 of 18
KISGSYLYESRNWNSVA,EASQREQ,QQYHRLPLS,GP_Gibbs,1.2 nM,6 of 6,2 of 18
KSSQSVDNESRNKNSVA,DASTRES,QQYHRLPLS,GP_HC,1.6 nM,6 of 6,1 of 18
TIGQMINGESRNRNSVA,QASTRES,QSYDRLPLS,En_HC,7.0 nM,6 of 6,3 of 18
KLSQSFLYESRNKNSVA,DASTRES,QQYHRLPLS,GP_Gen,720 pM,6 of 6,2 of 18
KFSDSVLLESRTFNSVA,NASTRES,QQYHRLPLS,GP_HC,940 pM,6 of 6,0 of 18
KFSQGNLYEDRNQNSVA,NASQRLQ,QDYHRLPLS,GP_Gibbs,4.7 nM,6 of 6,0 of 18
KSSQGVRYESRNKNSVA,WASTRES,QQYHKLPLS,Ctrl,84 nM,1 of 6,0 of 18
KLQQSHLYESRMKNSVA,NASQRES,QQYHRLPLS,GP_Gen,2.9 nM,6 of 6,1 of 18
KMPQSWWYESRNKQSVA,NASERES,QQYHRLPLS,GP_Gibbs,1.4 nM,6 of 6,1 of 18
IISQLKLGEWRNKNSVA,DASQRES,QQYHRLPLS,GP_Gibbs,2.4 nM,6 of 6,3 of 18
KSSQSNLYESTNKNSVA,WASERES,QQYHRLPLL,Ctrl,21 nM,6 of 6,0 of 18
HFSVETMEFMGKNKNIA,EVSTTML,QQYARLPFM,En_Gibbs,5.5 nM,6 of 6,1 of 18
KSSQSVLYESDNNNSVA,QASCRES,QQYHRLPAS,Ctrl,750 nM,1 of 6,0 of 18
KLSQSVLYESGNKNSVA,NASTRES,QQYHRLPLS,GP_Gen,460 pM,6 of 6,0 of 18
KSSMSWLYESRNKNSVA,GASSRES,QQYHRLPLS,GP_HC,2.0 nM,6 of 6,1 of 18
SLRMKELGMSYNANNVA,DSENRIK,QQYYRLPLM,En_Gibbs,19 nM,6 of 6,2 of 18
KVSQSVLYESRNKNSVA,QASTRES,QQYHRLPLF,Ctrl,490 pM,6 of 6,3 of 18
MISQLYNMGQFAINSVA,QANIRNA,QQYDRLPLA,En_Gen,13 nM,6 of 6,0 of 18
KLQQSVLYESRNKNSVA,GASQRES,QQYHRLPLS,GP_Gen,810 pM,6 of 6,2 of 18
KYQQSEPYESRNKNSVA,NASTRET,QQYHQLPLS,GP_Gibbs,2.9 nM,6 of 6,1 of 18
MISQVMNTLTRHGNNVA,DLAEREA,QQYFRLPLS,En_Gen,35 nM,6 of 6,0 of 18
NLSMELEDMGVKTGSIA,ENQLPEY,QQYARLPLM,En_Gibbs,8.3 nM,6 of 6,0 of 18
KMAQGWMYESRMKNSVA,NASVRES,QQYHRLPLS,GP_Gibbs,610 pM,6 of 6,1 of 18
KLSQSWLYESRNKNNVA,NASTRED,QQYHRLPLS,GP_Gen,380 pM,6 of 6,1 of 18
RMDVIGQESVRQYNAVA,NGETRTA,QHYNRLPLE,En_Gibbs,18 nM,6 of 6,0 of 18
KVSQSVLYEHRNKNSVA,RASTRES,QQHHRLPLS,Ctrl,1.6 µM,1 of 6,1 of 18
KMSQSVLYESFNDNSVA,WASTRES,QQYQCLPLS,Ctrl,nd,0 of 6,1 of 18
KLSQSFLYESRNKMSVA,NADTRLE,QQYHRLPLS,GP_Gibbs,730 pM,6 of 6,1 of 18
KLRQSTLYESRNQNSVA,WASTRED,QQYHRLPLS,GP_HC,13 nM,6 of 6,1 of 18
KSQQHVSYESRNKNSVA,WASTRES,QQYHRLPLA,Ctrl,nd,0 of 6,0 of 18
KISQMVRVGATVSNSIA,EEVTRAK,QQYHRLPLA,En_Gen,18 nM,6 of 6,1 of 18
KSSISYLYESGNTNSVA,EASTRES,QQYHRLPLS,GP_HC,3.1 nM,6 of 6,3 of 18
KLSQSQLYESRNKNNVA,HASTRES,QQYHRLPLS,GP_Gen,420 pM,6 of 6,0 of 18
KLYFNVGTMSHAKQSIA,DMERRED,QQYHRLPLS,En_HC,3.8 nM,6 of 6,0 of 18
KSSQSVLYESDNKNSVA,WASTRES,QQYCRLPLS,Ctrl,79 nM,4 of 6,0 of 18
RFTEHLLMLESKIYNIA,NATKTME,QQYFRLPFV,En_Gibbs,8.4 nM,6 of 6,1 of 18

A selection of 8 entries from above:

CDR-L1,CDR-L2,CDR-L3,group,Kd,seen in,control signals
KISSLTLYESVQKNNVA,EMSTRPS,QSYHRLPLS,En_HC,4.9 nM,6 of 6,4 of 18
KLSQSQLYESRNKNNVA,HASTRES,QQYHRLPLS,GP_Gen,420 pM,6 of 6,0 of 18
KVSQSKLYESRNKNNVA,EASTRES,QQYHRLPLS,GP_Gen,480 pM,6 of 6,1 of 18
KMSQSVLYESFNDNSVA,WASTRES,QQYQCLPLS,Ctrl,nd,0 of 6,1 of 18
KSSQSVLYESDNNNSVA,QASCRES,QQYHRLPAS,Ctrl,750 nM,1 of 6,0 of 18
KVSQSVLYEHRNKNSVA,RASTRES,QQHHRLPLS,Ctrl,1.6 µM,1 of 6,1 of 18
KSSISYLYESGNTNSVA,EASTRES,QQYHRLPLS,GP_HC,3.1 nM,6 of 6,3 of 18
RMDVIGQESVRQYNAVA,NGETRTA,QHYNRLPLE,En_Gibbs,18 nM,6 of 6,0 of 18

Data: MIT Lincoln Laboratory AlphaSeq set, Li et al. 2023, doi:10.1038/s41467-023-39022-2, as distributed in FLAb.